Values quoted from earlier work in PMC11395313.

Target: STIM2 K-rich domain (Homo sapiens) (UniProt Q9P246)

Kd: 1000 nM
Substance: calmodulin (from UniProt P0DP23)
